Entries after “also recorded” stand apart in the source; their conditions may differ.

The nature of data set [1]: Single injection acute toxicity study in rats. In kind it is in vivo, SD rats. The method, then:
The acute toxicity of the candidate ADC was evaluated in rats. Female Sprague-Dawley rats were injected with high doses (60 mg/kg or more) of ADCs, and impact of drugs on the animals was then observed and analyzed, and index such as body weight, clinical signs, hematology, clinical biochemistry and histopathology were studied to evaluate the toxicity of the candidate ADC.
The drug was administered by a single injection via tail vein. The administration dose is 10 ml/kg, and the administration rate is about 1 ml/min. During the experiment, the animals were subjected to clinical inspection, and were examined for body weight, food intake, blood count, blood biochemical indices. At the end of the experiment, all animals were euthanized, anatomized and checked systematically. All major organs were weighed, organ coefficient was calculated and any visible lesions were recorded.

Data set [2] is described as follows: In vivo pharmacokinetic study in rats, serum total ADC by ELISA. Conditions: for blood concentration as % of that detected 1 h after administration: female SD rats, 10 mg/kg i.v. (In general: An ELISA detects its analyte on a solid surface through an enzyme-linked reagent.)

Regarding ado-trastuzumab emtansine [Kadcyla], in data set [1] (60 mg/kg), the “ALT, AST, TBIL, GGT” value is listed as “increased or had a tendency to increase”; the “erythroid index (RBC, HGB, HCT, Retic)” value is reported as “reduced”; the “white blood cell and its subgroup count” value was “increased”. Further, the “visible nasal secretions (animals affected)” value in data set [1] (60 mg/kg, 5 days after administration (D5), n=6) was 2/6. Besides, in data set [1] (60 mg/kg, D5, n=6), the “arched (animals affected)” value was 1/6; the “ears and limbs pale (animals affected)” value was 1/6; the “ears flushing (ear portions) and swelling (animals affected)” value is recorded as 6/6; the “fluffy coat (animals affected)” value is reported as 6/6. For the same substance, the “weight loss (animals affected)” value in data set [1] (60 mg/kg, D5, n=6) is 1/6. Further, in data set [1] (60 mg/kg, necropsy, n=6), the “blunt liver edge round (animals affected)” value is 4/6, the “spleen large (animals affected)” value is on record as 6/6 and the “thymus change (animals affected)” value is reported as 1/6. In addition, the “ALT and AST level compared with vehicle control” value in data set [1] (single tail vein injection, GQ1001 6 and 60 mg/kg, Kadcyla 60 mg/kg) is “significantly increased; also recorded: increased significantly”. For the same substance, the “body weight change compared with vehicle control” value in data set [1] (single tail vein injection, GQ1001 6 and 60 mg/kg, Kadcyla 60 mg/kg (D2-D12)) is given as “significantly lower; also recorded: significant weight loss”. In addition, the “attenuation rate / serum concentration change, GQ1001 compared with Kadcyla” value in data set [2] (SD rats, single tail vein injection, 1 h to 28 days) is given as “no significant difference”. Also, the “blood concentration as % of that detected 1 h after administration” value (from here on “blood concentration as %”) in data set [2] (6 days after administration) is on record as 20.5%. In addition, the “blood concentration as %” value in data set [2] (13 days after administration) came out at 12.2%. Moreover, the “blood concentration as %” value in data set [2] (21 days after administration) came to 7.7%. In addition, in data set [2] (28 days after administration), the “blood concentration as %” value was 5.2%. Also, the “blood concentration as %” value in data set [2] (one day after administration) was 42.5%.

The values above are taken from US11911434B2, “Stable antibody-drug conjugate, preparation method therefor, and use thereof” (GENEQUANTUM HEALTHCARE (SUZHOU) CO., LTD., priority 2014, dated 2024).
